## Yeast mating assay 2: variants of the scFv Ab-91

Target: peptide PDVDLGDISGINAS, taken from heptad repeat 2 (HR2) of SARS-CoV-2 spike.

Each scFv is VL, three GGGGS repeats, VH, as in the parent Ab-91, and differs from it in the CDRs of the heavy chain only.
VL: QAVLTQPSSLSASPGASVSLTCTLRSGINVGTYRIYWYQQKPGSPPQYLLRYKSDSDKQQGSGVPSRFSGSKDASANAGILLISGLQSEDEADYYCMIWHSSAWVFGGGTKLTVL
VH: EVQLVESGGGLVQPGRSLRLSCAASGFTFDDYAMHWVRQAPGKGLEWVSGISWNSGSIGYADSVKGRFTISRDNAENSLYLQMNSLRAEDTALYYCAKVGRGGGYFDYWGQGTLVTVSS

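Phage display of a naive human antibody library on the peptide gave the parent. Library AAYL51 holds single substitutions and randomly drawn double and triple substitutions in the CDRs. Affinity was read by AlphaSeq, a pooled yeast mating assay with surface-displayed partners. Binding brings cells together so that they mate, and sequencing counts the barcode pairs among the diploids. Each replicate has its own calibration line, from reference interactions of the BCL2 family. Each pool was mated in three replicate cultures.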

The parent's heavy chain CDRs are GFTFDDYAMH, GISWNSGSIGYADSVK, VGRGGGYFDY; each variant's own CDRs replace them letter for letter. Every variant below is changed at A61 of the VH (sequential numbering). The Kd shown is the geometric mean over detected replicates; a lower Kd is a better binder. Where no diploid with the target was found in any replicate, the entry reads "no signal": below detection, most likely a poor binder, though not proof of it. For reference, the parent read 72 nM as the reference entry and 7.5 nM as a member of this library.

* GTTDDDYAMH, GISWNSGSIGYVDSVK, VGRGGGYFDY = 840 nM (1 of 3 replicates; controls 0 of 9)
* GFTFDDYAMH, GISWNSGTIGYKDSVK, VGWGGGYFDY = 840 nM (1 of 3 replicates; controls 0 of 9)
* HFTFDDQAMH, GISWNSGSIGYGDSVK, VGRGGGYFDY = no signal (0 of 3 replicates; controls 0 of 9)
* GTTFDNYAMH, GISWNSGSIGYLDSVK, VGRGGGYFDY = no signal (0 of 3 replicates; controls 1 of 9)
* LFTFDDYAMH, GISWNSGSIGYNDSVK, VGRGGGYFDY = no signal (0 of 3 replicates; controls 0 of 9)
* GFTFDDTAMH, GISWNSGLIGYNDSVK, VGRGGGYFDY = 18 µM (3 of 3 replicates; controls 3 of 9)
* GFTFDDYAMH, GISWASGSIGYLDSVI, VGRGGGYFDY = 120 µM (1 of 3 replicates; controls 1 of 9)
* GFTFDDYAMH, GISWNSGSLGYCDSVK, VGRGGGEFDY = no signal (0 of 3 replicates; controls 0 of 9)
* GFTFDDYAMH, GISWNHGSIGYEDSVK, VGRGGGYFLY = 13 µM (1 of 3 replicates; controls 1 of 9)
* GFTFDDYAMH, GCSWNSGSIGYQDSVK, VGRGGGYFDE = 89 µM (2 of 3 replicates; controls 2 of 9)
* GFTFADYASH, GISWNSGSIGYFDSVK, VGRGGGYFDY = 20 µM (1 of 3 replicates; controls 0 of 9)
* GFTFDDYAMH, GISWNSGSIGGHDSVK, VGRGGGTFDY = 670 µM (1 of 3 replicates; controls 7 of 9)
* GFTFDDYAMH, GISWVSGSIGYPDSVK, VGRGEGYFDY = no signal (0 of 3 replicates; controls 0 of 9)
* GFTFDNYAMH, GISWNSGSIGYVDSVK, VGRGGGYFDY = 5.1 nM (3 of 3 replicates; controls 4 of 9)
* GFTFDDYAMH, GISINSGSIGYWDSVK, VGRGQGYFDY = 39 µM (1 of 3 replicates; controls 2 of 9)
* GFTFDDYAMH, GIWWNSGSIGWPDSVK, VGRGGGYFDY = no signal (0 of 3 replicates; controls 0 of 9)
* GFTFDDYAMT, GISINSGSIGYRDSVK, VGRGGGYFDY = no signal (0 of 3 replicates; controls 0 of 9)
* GFTFDDYAMH, GISWNSGSIGYDDSVK, VGRYGGMFDY = 370 µM (1 of 3 replicates; controls 2 of 9)
* GFTHDDYAMH, GISGNSGSIGYFDSVK, VGRGGGYFDY = 3.9 µM (1 of 3 replicates; controls 0 of 9)
* GFTFDDYAMH, GISWNSGSICYEDLVK, VGRGGGYFDY = no signal (0 of 3 replicates; controls 2 of 9)
* GFTFDDYAMH, GISWNSGSIGEKDSVT, VGRGGGYFDY = 760 nM (1 of 3 replicates; controls 0 of 9)
* GFTFDDYAMH, GISDNSGSIGYNDSVK, VGRPGGYFDY = no signal (0 of 3 replicates; controls 0 of 9)
* GFTFDDYAMH, GISWNSGSIGYLPSVK, VGRGGGYFDY = 130 µM (3 of 3 replicates; controls 6 of 9)
* GFTFWDYAMH, GISWNSGRIGYYDSVK, VGRGGGYFDY = 560 µM (1 of 3 replicates; controls 2 of 9)
* GFTFSDYAMH, GISWNSGSIGYQDSVK, VGDGGGYFDY = 53 nM (3 of 3 replicates; controls 3 of 9)
* GFTFDDYAMY, GISWNSGSIGYHDSVK, VGRGGGYFDD = no signal (0 of 3 replicates; controls 1 of 9)
* GFTFDDYAMH, GTSWNSGSIGYDNSVK, VGRGGGYFDY = no signal (0 of 3 replicates; controls 0 of 9)
* GFTFDDYAMH, GISWNSGSIGYDNEVK, VGRGGGYFDY = 900 nM (3 of 3 replicates; controls 0 of 9)
* GFTFDDYWMH, GISVNSGSIGYDDSVK, VGRGGGYFDY = no signal (0 of 3 replicates; controls 0 of 9)
* GFTFDDYAMH, GISWNSGNIGYHDSYK, VGRGGGYFDY = no signal (0 of 3 replicates; controls 1 of 9)
* GFTFSDYAMH, GISWNSGSMGYDDSVK, VGRGGGYFDY = 4.4 nM (3 of 3 replicates; controls 7 of 9)
* GFTFDDYAMH, GISWNSGSIGYLDSVK, VGREGGYFDY = 580 nM (3 of 3 replicates; controls 2 of 9)
* GFTFDDTAMH, GISWNSGSIGYVDSVP, VGRGGGYFDY = 29 µM (2 of 3 replicates; controls 6 of 9)
* GFTFEDYAMH, GISWNSGSIGYDDSVK, VGRGGGYFDN = 5.1 µM (1 of 3 replicates; controls 3 of 9)
* GFTFDDYAMH, GISWASGSIGFMDSVK, VGRGGGYFDY = 1.1 mM (1 of 3 replicates; controls 4 of 9)
* GFTFDDIAMH, GISWNSGSIGYKDSVK, VGRGDGYFDY = no signal (0 of 3 replicates; controls 2 of 9)
* GFTFDDYNMH, GISWNSGSIGYMDSVK, VGRGGGYFDY = no signal (0 of 3 replicates; controls 0 of 9)
* GFTFDDMAMH, GISWNSGSIGYMDSVK, VGRGGGYFDV = no signal (0 of 3 replicates; controls 0 of 9)
* GFTFDDYAMH, GISWNRGSIGYRDSVK, VGRGGGYFDS = 250 µM (2 of 3 replicates; controls 5 of 9)
* GFTFDDYAMH, GISWNSGSIFYEDSVK, VGQGGGYFDY = 240 µM (3 of 3 replicates; controls 6 of 9)
* GFQFDDYAMH, GISWNSGSIGYKDSVK, VGRGGMYFDY = no signal (0 of 3 replicates; controls 1 of 9)
* GFRFDDYAMH, GISWMSGSIGYKDSVK, VGRGGGYFDY = 100 µM (1 of 3 replicates; controls 1 of 9)
* GFTFDDYAMH, GISWNSGNIGYNDSVK, VGKGGGYFDY = no signal (0 of 3 replicates; controls 0 of 9)
* GFTFDDYAMH, GISWNSLSIGYDDSVK, NGRGGGYFDY = 25 µM (3 of 3 replicates; controls 4 of 9)
* GFTFQDYAMH, GISTNSGSIGYLDSVK, VGRGGGYFDY = 36 nM (3 of 3 replicates; controls 0 of 9)
* GFTFDDYAMC, GISWNSGSIGYVDSVK, VGRGGWYFDY = no signal (0 of 3 replicates; controls 0 of 9)
* GITFDDYAMH, GISWNSGSIGYVDSVK, VGRGGGWFDY = no signal (0 of 3 replicates; controls 0 of 9)
* EFTFDDYAMH, GISWNSGSIGYMDSVK, VGRGGGYSDY = no signal (0 of 3 replicates; controls 1 of 9)
* GFTFDTYAMN, GISWNSGSIGYTDSVK, VGRGGGYFDY = 9.8 µM (1 of 3 replicates; controls 1 of 9)
* GFTFFDYAMH, GISWNSGSIGATDSVK, VGRGGGYFDY = no signal (0 of 3 replicates; controls 1 of 9)
* GFTFDDYAMH, GISWNSGSIGYTDSVK, VGRGCGYFDY = 34 nM (3 of 3 replicates; controls 0 of 9)
* GFTFDDYAMH, GISWNSGSIGYLDSVK, EGRGTGYFDY = 54 µM (3 of 3 replicates; controls 8 of 9)

Picked from the list: the 5 lowest averages where every replicate gave a value.

{"CDR-H1": "GFTFSDYAMH", "CDR-H2": "GISWNSGSMGYDDSVK", "CDR-H3": "VGRGGGYFDY", "Kd (apparent)": "4.4 nM", "replicates with signal": "3/3", "control signals": "7/9"}
{"CDR-H1": "GFTFDNYAMH", "CDR-H2": "GISWNSGSIGYVDSVK", "CDR-H3": "VGRGGGYFDY", "Kd (apparent)": "5.1 nM", "replicates with signal": "3/3", "control signals": "4/9"}
{"CDR-H1": "GFTFDDYAMH", "CDR-H2": "GISWNSGSIGYTDSVK", "CDR-H3": "VGRGCGYFDY", "Kd (apparent)": "34 nM", "replicates with signal": "3/3", "control signals": "0/9"}
{"CDR-H1": "GFTFQDYAMH", "CDR-H2": "GISTNSGSIGYLDSVK", "CDR-H3": "VGRGGGYFDY", "Kd (apparent)": "36 nM", "replicates with signal": "3/3", "control signals": "0/9"}
{"CDR-H1": "GFTFSDYAMH", "CDR-H2": "GISWNSGSIGYQDSVK", "CDR-H3": "VGDGGGYFDY", "Kd (apparent)": "53 nM", "replicates with signal": "3/3", "control signals": "3/9"}

Empty control strains, which show no peptide, gave a signal in 21% of pairings with library AAYL51; the median was 34 µM and 95% of these signals were weaker than 1.8 µM. No background was subtracted. For each scFv, signals with the empty controls are counted beside the result.

Source: Engelhart et al. 2022 (doi:10.1038/s41597-022-01779-4), MIT Lincoln Laboratory and A-Alpha Bio; data file from the FLAb repository.